The results in this text go back to US9902690B2, “Ethoxylated surfactants” (priority 2013, dated 2018).

A word on the Solubility: it is the dissolved amount per volume that the medium holds. Higher therefore signals much dissolved substance.

The series is described as follows: Solubility (surfactant parameters, standard procedures).

The substance polyoxyethylene (10) stearyl ether came in with a Solubility of 0.30 mM.

In turn, polyoxyethylene (20) stearyl ether registered a Solubility of 20 mM.
